## Antibody variant affinities, Ab-95 light chain, assay 2

From the AlphaSeq antibody data of Engelhart et al. 2022 (doi:10.1038/s41597-022-01779-4), copy in the FLAb collection.

All variants were tested on one target, the spike HR2 peptide PDVDLGDISGINAS (SARS-CoV-2).

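Phage display of a naive human antibody library on the peptide gave the parent. Library AAYL52 holds single substitutions and randomly drawn double and triple substitutions in the CDRs. The scFvs were displayed on barcoded MATa yeast, the peptide on MATalpha yeast. The frequency of each diploid, read from paired DNA barcodes, reflects how well the two displayed proteins bind. Each replicate has its own calibration line, from reference interactions of the BCL2 family. The assay was run in three technical replicates.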

Each scFv is VH, three GGGGS repeats, VL, as in the parent Ab-95, and differs from it in the CDRs of the light chain only.
VH: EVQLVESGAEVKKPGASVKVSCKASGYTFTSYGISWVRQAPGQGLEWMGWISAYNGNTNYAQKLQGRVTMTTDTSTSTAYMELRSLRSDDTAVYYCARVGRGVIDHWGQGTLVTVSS
VL: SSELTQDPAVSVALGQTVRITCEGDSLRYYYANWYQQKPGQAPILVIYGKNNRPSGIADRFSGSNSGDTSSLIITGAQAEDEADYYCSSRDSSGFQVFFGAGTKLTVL

Variants are written as CDR1, CDR2 and CDR3 of the light chain (limits as in the source). Parent: EGDSLRYYYAN, GKNNRPS, SSRDSSGFQVF. The read-out is the apparent dissociation constant on a log10 scale (nM): the lower, the stronger. A mean of the replicates is given; it leaves out those without a signal. A pair that was not seen in that replicate is written "ND"; this usually means weak binding, but a binder can also be missed. Empty control strains, which show no peptide, gave a signal in 28% of pairings with library AAYL52; the median was 3.91 and 95% of these signals were weaker than 2.90. No background was subtracted. The control count says in how many pairings with the empty strains this scFv gave a signal, with their mean in brackets. In this assay the parent's reference entry averaged 2.31; its copy inside this library read 2.25.

| # | CDR-L1 | CDR-L2 | CDR-L3 | log10 Kd (nM) by replicate | mean log10 Kd (nM) | control signals |
|---|---|---|---|---|---|---|
| 1 | EGDSLRYYYVN | GKNNTPS | SSRDLSGFQVF | 4.26 / ND / ND | 4.26 | 0 of 9 |
| 2 | EGDSLTYYYAN | GKNFRPS | SSRDSSGFQVF | 3.74 / ND / ND | 3.74 | 0 of 9 |
| 3 | EGDSLRYYYAN | GKNNRPY | SSRISMGFQVF | ND / ND / ND | ND | 3 of 9 (3.91) |
| 4 | EGDSLRERYAN | GKNNRPS | FSRDSSGFQVF | 2.74 / 2.35 / 2.20 | 2.43 | 3 of 9 (3.94) |
| 5 | EGDSLRYYYMN | GKNNRPS | SSRGSSGFQVF | 3.54 / 3.71 / 2.37 | 3.21 | 1 of 9 (2.65) |
| 6 | EGDSLRYYYAN | GKNQRPS | SVRDGSGFQVF | 3.01 / 3.09 / 3.25 | 3.12 | 3 of 9 (4.25) |
| 7 | EGDSCRYYYAS | GKNNRPS | SSRDSSGSQVF | ND / ND / ND | ND | 0 of 9 |
| 8 | EGISLRYYYAN | GKYERPS | SSRDSSGFQVF | ND / 3.56 / ND | 3.56 | 3 of 9 (4.39) |
| 9 | EIDSLRYYYAN | GKNNRPS | SSRDSSGFPVR | 3.61 / 3.47 / ND | 3.54 | 2 of 9 (3.24) |
| 10 | EGVSLRYCYAN | GKNNKPS | SSRDSSGFQVF | 2.82 / 2.85 / 2.35 | 2.67 | 3 of 9 (3.63) |
| 11 | QGDSLQYYYAN | GKNNRPS | SSRDESGFQVF | 1.61 / 1.63 / 1.27 | 1.50 | 5 of 9 (4.08) |
| 12 | EPDSLRYYYAN | GKNNMPS | SSRDVSGFQVF | ND / ND / ND | ND | 2 of 9 (4.32) |
| 13 | EGDSLRYYQAN | GKNDRPS | SSRDQSGFQVF | 0.87 / 0.91 / 0.14 | 0.64 | 2 of 9 (4.71) |
| 14 | EGDSLRYYYAN | GHQNRPS | SSRDSSGFQVF | 2.61 / 3.57 / 2.89 | 3.02 | 5 of 9 (4.32) |
| 15 | EGDSLRYWYAN | GKNNRPS | ISRDSIGFQVF | 2.14 / 2.45 / 1.32 | 1.97 | 0 of 9 |
| 16 | EGDSLRYYTAN | GKVSRPS | SSRDSSGFQVF | 3.80 / 3.62 / 3.35 | 3.59 | 3 of 9 (4.30) |
| 17 | EGDSLIYYYAN | GKNNRPS | SSRSSEGFQVF | 2.37 / 2.76 / 2.70 | 2.61 | 7 of 9 (4.07) |
| 18 | ELDSLRYYYAQ | GKNNRLS | SSRDSSGFQVF | ND / ND / ND | ND | 2 of 9 (3.80) |
| 19 | EGDSLRYYYAN | GKNNRPS | SSRLSSGFMFF | 2.74 / 2.17 / 1.88 | 2.26 | 2 of 9 (3.65) |
| 20 | EGDSLRYYYAN | GKNNRPK | SSRDSSGIQAF | 2.60 / 2.40 / 2.92 | 2.64 | 2 of 9 (3.64) |
| 21 | EGDSLRYYYAN | GKNTFPS | SSRDSSGFTVF | ND / ND / ND | ND | 2 of 9 (3.49) |
| 22 | EGDSLMYQYAN | GKNNRPS | SSRDSSGMQVF | 1.40 / 1.36 / 0.92 | 1.23 | 0 of 9 |
| 23 | EGDSLRYYYAN | GKMNRPK | SSRDASGFQVF | 3.57 / 2.92 / 2.76 | 3.08 | 6 of 9 (3.41) |
| 24 | EGDSHRYYYAT | LKNNRPS | SSRDSSGFQVF | ND / ND / ND | ND | 2 of 9 (4.54) |
| 25 | GRDSLRYYYAN | GKHNRPS | SSRDSSGFQVF | ND / 3.65 / ND | 3.65 | 1 of 9 (3.68) |
| 26 | EGDSLRYYYAR | GKNNRDS | SYRDSSGFQVF | 4.28 / 4.42 / 4.59 | 4.43 | 5 of 9 (3.95) |
| 27 | EGDSLRYYYAN | GKNNRPS | SKRDHQGFQVF | ND / 2.76 / 3.58 | 3.17 | 2 of 9 (3.45) |
| 28 | EGDSLRYYWAN | GKYNRPS | SSRDSSGSQVF | 4.74 / 3.71 / 3.44 | 3.96 | 4 of 9 (3.64) |
| 29 | VGDSLRYYYAN | GKNYRPG | SSRDSSGFQVF | 2.30 / 2.45 / 2.22 | 2.32 | 2 of 9 (4.03) |
| 30 | ENDSLRYGYFN | GKNNRPS | SSRDSSGFQVF | 3.70 / 2.94 / 3.86 | 3.50 | 3 of 9 (3.38) |
| 31 | EGDSLKYYYAN | GKNNRPS | YKRDSSGFQVF | 2.62 / 3.10 / 2.73 | 2.81 | 1 of 9 (4.55) |
| 32 | EGDSLRYYYAK | GKNNRPS | SSRDISGFQVP | ND / 4.83 / ND | 4.83 | 1 of 9 (4.24) |
| 33 | EGDSLRYYYAN | GKNNRPC | SSRLSSGKQVF | ND / ND / ND | ND | 4 of 9 (3.98) |
| 34 | EGDSLRYYNAN | GKNNRPS | ESRDSRGFQVF | 1.80 / 1.90 / 1.61 | 1.77 | 4 of 9 (4.01) |
| 35 | EGDCLRYQYAN | GKNNRCS | SSRDSSGFQVF | 2.04 / 1.73 / 1.54 | 1.77 | 2 of 9 (3.39) |
| 36 | EGYSDRYYYAN | GKNNRPS | SSRDSSGFQVY | 3.15 / 3.71 / 2.89 | 3.25 | 3 of 9 (3.92) |

The closing 5 entries, repeated:

{"CDR-L1": "EGDSLRYYYAK", "CDR-L2": "GKNNRPS", "CDR-L3": "SSRDISGFQVP", "log10 Kd (nM) by replicate": "ND / 4.83 / ND", "mean log10 Kd (nM)": "4.83", "control signals": "1 of 9 (4.24)"}
{"CDR-L1": "EGDSLRYYYAN", "CDR-L2": "GKNNRPC", "CDR-L3": "SSRLSSGKQVF", "log10 Kd (nM) by replicate": "ND / ND / ND", "mean log10 Kd (nM)": "ND", "control signals": "4 of 9 (3.98)"}
{"CDR-L1": "EGDSLRYYNAN", "CDR-L2": "GKNNRPS", "CDR-L3": "ESRDSRGFQVF", "log10 Kd (nM) by replicate": "1.80 / 1.90 / 1.61", "mean log10 Kd (nM)": "1.77", "control signals": "4 of 9 (4.01)"}
{"CDR-L1": "EGDCLRYQYAN", "CDR-L2": "GKNNRCS", "CDR-L3": "SSRDSSGFQVF", "log10 Kd (nM) by replicate": "2.04 / 1.73 / 1.54", "mean log10 Kd (nM)": "1.77", "control signals": "2 of 9 (3.39)"}
{"CDR-L1": "EGYSDRYYYAN", "CDR-L2": "GKNNRPS", "CDR-L3": "SSRDSSGFQVY", "log10 Kd (nM) by replicate": "3.15 / 3.71 / 2.89", "mean log10 Kd (nM)": "3.25", "control signals": "3 of 9 (3.92)"}